In patent publication US20210308196A1, “COMPOSITIONS AND METHODS TO PROMOTE HOST DEFENSE AND STIMULATE, EXPAND, AND/OR RESET T CELL REPERTOIRES” (EVOLVE BIOSYSTEMS, INC., priority 2018, published 2021):

Experiment: Bacterial growth and oligosaccharide use in HMO, LNnT or FOS media (growth curves, HPLC)
Settings: after 48 hours of growth
Procedure: Little is known about the anti-inflammatory effects B. infantis-derived metabolites have on intestinal epithelial cells and how they might protect and maintain mucosal integrity in the infant gut. To investigate whether metabolites from B. infantis grown on HMO and synthetic HMOs can provide protective effects against pathogen-induced inflammation and maintain mucosal integrity compared to other commensal strains that have been previously characterized. B. infantis, B. breve, B. bifidum, and B. longum were grown in media containing pooled HMOs, synthetic Lacto-N-neotetraose (LNnT), or fructo-oligosaccharide (FOS, a readily available oligosaccharide commonly used in baby formulas). Four Lactobacillus plantarum strains were also grown in HMO, LNnT, and FOS media. Spent supernatant was collected and filtered after 48 hours of growth (when the bacteria reached the stationary phase) and evaluated for the remaining oligosaccharide concentration. […] After overnight incubation, cell supernatant was analyzed by ELISA for reductions in pro-inflammatory cytokines, including IL-8 and TNF-alpha. […]

Substance: Bifidobacterium longum subsp. infantis EVC001 [B. infantis EVC001]
- Pooled or synthetic HMOs remaining in the spent supernatant (HPLC): very low concentrations
